{
  "source": "patent US10561143B2",
  "about": "“Fungicidal composition having synergistic effect” (JIANGSU HUIFENG AGROCHEMICAL CO., LTD., priority 2013, dated 2020)",
  "key": {"rust pathogens of wheat [1]": {"tested_on": "rust pathogens of wheat", "experiment": "whole plant or invertebrate", "conditions": "Triticum aestivum"}, "rust pathogens of wheat [2]": {"tested_on": "rust pathogens of wheat"}, "[3]": {"conditions": "Table 19, series with fluopicolide"}, "[4]": {"conditions": "Table 18, series with picoxystrobin"}},
  "note": "Like-named read-outs stand apart in the source and are kept apart here.",
  "data": [
    {"compound": "O=[N+]([O-])c1cc(C(F)(F)F)c(Cl)c([N+](=O)[O-])c1Nc1ncc(C(F)(F)F)cc1Cl", "note": "[Fluazinam]", "values": [
      {"measurement": "EC50", "setting": "rust pathogens of wheat [1]", "value": 8.15, "unit": "µg/mL"}
    ]},
    {"compound": "O=C(NCc1ncc(C(F)(F)F)cc1Cl)c1c(Cl)cccc1Cl", "note": "[Fluopicolide]", "values": [
      {"measurement": "EC50", "setting": "rust pathogens of wheat [2]; [3]", "value": 7.69, "unit": "µg/mL"}
    ]},
    {"compound": "Cl.O=c1[nH]sc2ccccc12", "note": "[Benziothiazolinone hydrochloride]", "values": [
      {"measurement": "EC50", "setting": "rust pathogens of wheat [2]; Table 16, series with fluazinam", "value": 7.68, "unit": "µg/mL"}
    ]},
    {"compound": "O=c1[nH]sc2ccccc12", "note": "[Benziothiazolinone]", "values": [
      {"measurement": "EC50", "setting": "rust pathogens of wheat [2]; Table 17, series with prothioconazole", "value": 7.92, "unit": "µg/mL"},
      {"measurement": "EC50", "setting": "rust pathogens of wheat [2]; [4]", "value": 7.51, "unit": "µg/mL"},
      {"measurement": "EC50", "setting": "rust pathogens of wheat [2]; [3]", "value": 7.93, "unit": "µg/mL"},
      {"measurement": "EC50", "setting": "rust pathogens of wheat [2]; Table 20, series with famoxadone", "value": 7.51, "unit": "µg/mL"}
    ]},
    {"compound": "C[C@@]1(c2ccc(Oc3ccccc3)cc2)OC(=O)N(Nc2ccccc2)C1=O", "note": "(racemic) [Famoxadone]", "values": [
      {"measurement": "EC50", "setting": "rust pathogens of wheat [1]", "value": 7.96, "unit": "µg/mL"}
    ]},
    {"compound": "CO/C=C(/C(=O)OC)c1ccccc1COc1cccc(C(F)(F)F)n1", "note": "[Picoxystrobin]", "values": [
      {"measurement": "EC50", "setting": "rust pathogens of wheat [2]; [4]", "value": 8.26, "unit": "µg/mL"}
    ]},
    {"compound": "OC(Cc1ccccc1Cl)(Cn1nc[nH]c1=S)C1(Cl)CC1", "note": "(stereo not shown) [Prothioconazole]", "values": [
      {"measurement": "EC50", "setting": "rust pathogens of wheat [1]", "value": 7.68, "unit": "µg/mL"}
    ]}
  ]
}
